The values below are quoted from earlier work in patent publication US20210155955A1, “THERAPEUTIC CONSTRUCTS FOR TREATING CANCER” (CANCER TARGETING SYSTEMS, INC., priority 2018, published 2021).

The test system of this data set is PD-L1 and PD-L2. The following applies: Cheng, et al. J. Biol. Chem. 288: 11771-11785, 2013; cited from earlier work.

Turning to “PD-1: immunoglobulin superfamily cell surface receptor; extracellular domain proposed as decoy for PD-L1 and PD-L2”, the “interaction between PD-1 and its ligands” value is “weak (low μM)”.
